Reference: patent US10182986B2, “Method of delivering therapeutics and imaging agents to the brain by nanoparticles that cross the blood brain barrier” (CALIFORNIA INSTITUTE OF TECHNOLOGY, priority 2013, dated 2019)

Test: Tf-DAK-PEG-OPSS degradation in pH 5.5 buffer followed by MALDI-TOF
Format: physicochemical
Conditions: 37° C., crude mixture
Description: Preliminary studies were carried out to determine whether diamino ketal (DAK) could link Tf and PEG and allow for disassociation of Tf at mildly acidic pH. DAK was added to the amine-reactive terminus of NHS-PEG-OPSS followed by reaction with disuccinimidyl suberate (DSS) to reintroduce an amine-reactive functionality. DSS-DAK-PEG-OPSS was added to human holo-Tf to prepare Tf-DAK-PEG-OPSS (Scheme 2). Successful conjugation was verified by MALDI-TOF (FIG. 10). The conjugate's acid-sensitivity was verified by observing slow breakdown of the Tf-PEG's in the crude mixture over 24 hours in pH 5.5 buffer (FIG. 11). Significant decreases in higher orders of PEGylation are clear by 15 minutes and nearly all the PEG has cleaved by 2 hours.
Tf-DAK-PEG-OPSS was diluted to 1 mg/mL in 100 mM NaOAc pH 5.5 at 37° C. At various time points, aliquots were removed, diluted 1:10 in 10 mM NaH2PO4 pH 8.0 and frozen on CO2(s). Once the last aliquot was removed, all samples were melted and immediately measured by MALDI-TOF using a sinapinic acid matrix.

Tf-DAK-PEG-OPSS: human holo-Tf conjugated through diamino ketal (DAK) linker to PEG-orthopyridyl disulfide
Time by which significant decreases in higher orders of PEGylation are clear: ≤ 15 min
